The source of these data is patent publication US20180340156A1, “PURIFICATION OF A SOLUBLE AND ACTIVE FORM OF ASPARTATE N-[…]” (The University of Toledo, priority 2015, published 2018).

A short description of the series: Solubility on concentrating the purified enzyme. Type of series: physicochemical. To be noted: attempts to concentrate, without MBP fusion domain. On the procedure:
By contrast, attempts to concentrate the native enzyme without the MBP fusion domain led to precipitation at protein concentrations less than 1 mg/ml. The MBP-ANAT fusion enzyme was stored at 4° C. for one week and the enzyme activity was assayed each day to evaluate the enzyme stability.

B1: native enzyme: human aspartate N-acetyltransferase without the MBP fusion domain (protein, UniProt Q8N9F0 1-302, looked up)
N-acetylaspartate synthetase: MHCGPPDMVCETKIVAAEDHEALPGAKKDALLAAAGAMWPPLPAAPGPAAAPPAPPPAPVAQPHGGAGGAGPPGGRGVCIREFRAAEQEAARRIFYDGIMERIPNTAFRGLRQHPRAQLLYALLAALCFAVSRSLLLTCLVPAALLGLRYYYSRKVIRAYLECALHTDMADIEQYYMKPPGSCFWVAVLDGNVVGIVAARAHEEDNTVELLRMSVDSRFRGKGIAKALGRKVLEFAVVHNYSAVVLGTTAVKVAAHKLYESLGFRHMGASDHYVLPGMTLSLAERLFFQVRYHRYRLQLREE
On to B1, for which the “protein concentration at which precipitation occurs” value was “less than 1 mg/ml”.
